Measured values from PMC8776063, “Aurora Kinase A Is Involved in Controlling the Localization of Aquaporin-2 in Renal Principal Cells” (International Journal of Molecular Sciences, 2022).

Chains of the proteins cited; added tags and fusions are not shown. Residues count along the entry.
UniProt P15056, 448-723: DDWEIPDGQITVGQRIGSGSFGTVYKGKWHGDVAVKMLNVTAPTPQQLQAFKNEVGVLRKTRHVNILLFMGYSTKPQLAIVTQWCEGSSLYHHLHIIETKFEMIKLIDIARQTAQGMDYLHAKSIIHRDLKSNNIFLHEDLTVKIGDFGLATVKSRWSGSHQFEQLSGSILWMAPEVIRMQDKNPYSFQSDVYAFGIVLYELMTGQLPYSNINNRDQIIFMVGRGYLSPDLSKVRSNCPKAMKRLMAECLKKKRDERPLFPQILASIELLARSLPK
UniProt P68400, 1-337: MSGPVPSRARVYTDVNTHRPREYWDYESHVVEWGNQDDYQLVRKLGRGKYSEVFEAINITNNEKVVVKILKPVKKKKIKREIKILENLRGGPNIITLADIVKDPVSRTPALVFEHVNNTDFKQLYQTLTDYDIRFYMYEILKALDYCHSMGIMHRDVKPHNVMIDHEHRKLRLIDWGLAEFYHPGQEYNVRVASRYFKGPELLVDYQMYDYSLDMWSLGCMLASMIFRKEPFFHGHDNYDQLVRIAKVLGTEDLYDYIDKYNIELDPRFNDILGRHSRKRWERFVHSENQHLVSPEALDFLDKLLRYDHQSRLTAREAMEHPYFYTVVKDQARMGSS
UniProt P45983, 1-364: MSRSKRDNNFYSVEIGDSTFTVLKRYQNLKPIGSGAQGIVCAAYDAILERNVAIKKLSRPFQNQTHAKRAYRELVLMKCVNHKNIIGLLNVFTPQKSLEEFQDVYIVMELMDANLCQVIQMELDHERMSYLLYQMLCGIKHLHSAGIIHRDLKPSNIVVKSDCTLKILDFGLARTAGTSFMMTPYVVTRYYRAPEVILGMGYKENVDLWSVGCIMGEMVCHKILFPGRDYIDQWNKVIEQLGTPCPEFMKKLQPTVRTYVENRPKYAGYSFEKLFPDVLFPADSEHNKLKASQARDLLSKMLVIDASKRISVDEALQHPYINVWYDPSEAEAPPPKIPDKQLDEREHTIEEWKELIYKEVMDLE
UniProt P11309, whole entry: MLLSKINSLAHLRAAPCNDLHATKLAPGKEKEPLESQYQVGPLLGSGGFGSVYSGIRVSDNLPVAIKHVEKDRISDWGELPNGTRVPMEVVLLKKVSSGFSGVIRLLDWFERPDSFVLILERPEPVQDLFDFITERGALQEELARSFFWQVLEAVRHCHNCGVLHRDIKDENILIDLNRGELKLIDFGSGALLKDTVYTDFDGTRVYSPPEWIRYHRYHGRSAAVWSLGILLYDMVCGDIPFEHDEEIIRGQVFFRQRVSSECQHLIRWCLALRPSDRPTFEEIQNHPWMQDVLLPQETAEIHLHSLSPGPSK
UniProt Q9P289, 1-300: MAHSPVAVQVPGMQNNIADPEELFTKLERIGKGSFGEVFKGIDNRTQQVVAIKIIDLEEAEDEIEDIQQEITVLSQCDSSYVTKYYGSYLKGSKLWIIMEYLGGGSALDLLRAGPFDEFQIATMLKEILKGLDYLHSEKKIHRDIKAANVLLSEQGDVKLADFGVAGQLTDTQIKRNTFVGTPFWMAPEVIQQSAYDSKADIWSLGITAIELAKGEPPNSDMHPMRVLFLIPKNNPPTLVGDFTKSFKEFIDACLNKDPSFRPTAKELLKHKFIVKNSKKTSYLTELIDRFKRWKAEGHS

Columns and labels:
Assay in all cases: Thermal shift assay
Type in all cases: binding
[1] = biological target: T1, BRAF (Homo sapiens, UniProt P15056); settings: read-out: ΔTm BRAF
T1 construct: purchased in-house thermal shift (DSF) kinase panel (SGC Frankfurt); Promega NanoBRET for AURKA/B/C

[2] = biological target: T2, CSNK1D (Homo sapiens, UniProt P48730); settings: compound 10 µM; n = 3
T2 construct: purchased in-house thermal shift (DSF) kinase panel (SGC Frankfurt); Promega NanoBRET for AURKA/B/C
T2 sequence (P48730 1-294): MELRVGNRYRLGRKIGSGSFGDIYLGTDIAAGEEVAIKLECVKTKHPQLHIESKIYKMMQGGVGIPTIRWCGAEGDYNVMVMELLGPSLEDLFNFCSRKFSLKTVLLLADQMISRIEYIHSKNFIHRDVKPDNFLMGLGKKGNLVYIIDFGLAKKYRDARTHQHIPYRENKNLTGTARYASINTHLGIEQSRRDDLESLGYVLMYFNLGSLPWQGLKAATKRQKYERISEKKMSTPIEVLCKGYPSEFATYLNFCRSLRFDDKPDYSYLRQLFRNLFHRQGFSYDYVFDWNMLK

[3] = biological target: T3, CSNK2A1 (Homo sapiens, UniProt P68400); settings: read-out: ΔTm CSNK2A1
T3 construct: purchased in-house thermal shift (DSF) kinase panel (SGC Frankfurt); Promega NanoBRET for AURKA/B/C

[4] = biological target: T4, GSG2 (Homo sapiens, UniProt Q8TF76); settings: compound 10 µM; n = 3
T4 construct: purchased in-house thermal shift (DSF) kinase panel (SGC Frankfurt); Promega NanoBRET for AURKA/B/C
T4 sequence (Q8TF76 465-798): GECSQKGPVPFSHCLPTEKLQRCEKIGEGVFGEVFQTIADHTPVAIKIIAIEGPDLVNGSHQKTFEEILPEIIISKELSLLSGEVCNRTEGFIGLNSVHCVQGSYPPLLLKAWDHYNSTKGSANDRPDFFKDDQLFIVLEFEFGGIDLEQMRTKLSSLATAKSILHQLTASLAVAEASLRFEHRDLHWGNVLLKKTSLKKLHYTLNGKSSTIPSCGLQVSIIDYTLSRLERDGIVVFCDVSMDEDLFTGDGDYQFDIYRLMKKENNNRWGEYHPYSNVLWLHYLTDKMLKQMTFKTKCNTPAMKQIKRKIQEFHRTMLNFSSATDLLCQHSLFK

[5] = biological target: T5, MAPK8 (Homo sapiens, UniProt P45983); settings: read-out: ΔTm MAPK8
T5 construct: purchased in-house thermal shift (DSF) kinase panel (SGC Frankfurt); Promega NanoBRET for AURKA/B/C

[6] = biological target: T6, MAPK9 (Homo sapiens, UniProt P45984); settings: read-out: ΔTm MAPK9
T6 construct: purchased in-house thermal shift (DSF) kinase panel (SGC Frankfurt); Promega NanoBRET for AURKA/B/C

[7] = biological target: T7, PIM1 (Homo sapiens, UniProt P11309); settings: read-out: ΔTm PIM1
T7 construct: purchased in-house thermal shift (DSF) kinase panel (SGC Frankfurt); Promega NanoBRET for AURKA/B/C

[8] = biological target: T8, STK26 (Homo sapiens, UniProt Q9P289); settings: read-out: ΔTm STK26
T8 construct: purchased in-house thermal shift (DSF) kinase panel (SGC Frankfurt); Promega NanoBRET for AURKA/B/C

[9] = biological target: T9, ULK3 (Homo sapiens, UniProt Q6PHR2); settings: read-out: ΔTm ULK3
T9 construct: purchased in-house thermal shift (DSF) kinase panel (SGC Frankfurt); Promega NanoBRET for AURKA/B/C
T9 sequence (Q6PHR2 1-277): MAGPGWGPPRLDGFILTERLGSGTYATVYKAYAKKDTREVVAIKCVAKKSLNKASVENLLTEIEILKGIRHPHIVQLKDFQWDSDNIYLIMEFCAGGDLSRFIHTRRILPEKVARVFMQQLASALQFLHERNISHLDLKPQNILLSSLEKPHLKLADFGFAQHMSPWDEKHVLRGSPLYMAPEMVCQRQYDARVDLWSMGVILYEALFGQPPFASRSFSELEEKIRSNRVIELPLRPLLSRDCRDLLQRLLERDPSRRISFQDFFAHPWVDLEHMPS

CN[C@@H]1C[C@H]2O[C@@](C)([C@@H]1OC)n1c3ccccc3c3c4c(c5c6ccccc6n2c5c31)C(=O)NC4 [Staurosporine, reference compound]
ΔTm at 10 µM [1]: 0.4 °C | ΔTm at 10 µM [2]: 1.3 °C | ΔTm at 10 µM [3]: 2.3 °C | ΔTm at 10 µM [4]: 8.4 °C | ΔTm at 10 µM [5]: 6.6 °C | ΔTm at 10 µM [6]: 3.3 °C | ΔTm at 10 µM [7]: 11.4 °C | ΔTm at 10 µM [8]: 6.9 °C | ΔTm at 10 µM [9]: 18.5 °C
